Measured values as given in patent US5877293, “CDR grafted anti-CEA antibodies and their production” (Celltech Therapeutics Limited, dated 1999).

Molecular target: Carcinoembryonic Antigen (CEA) (Homo sapiens (Human), UniProt P06731)
Assay: competition RIA against 125I-labelled murine or chimeric A5B7 IgG1 on CEA coated beads
Description: The competition RIA for anti-CEA activity involved competition of a series of ^125I-labelled murine or chimeric A5B7 IgG1 with humanised IgG or fragments thereof from culture supernatant samples for binding to CEA coated beads. Binding activity was determined by measuring bead associated radioactivity. The assay was calibrated by competition with standard preparations of chimeric or murine A5B7 IgG1 and plotting % bound cpm versus antibody concentration. Interpolated apparent A5B7 concentration of unknowns was normalised by dividing by the assembly assay result to give a specific activity. Finally specific activity was expressed as % relative potency by comparison to that obtained from a positive control chimeric A5B7 culture supernatant produced during the same experiment.
The relative potency of purified murine and chimeric A5B7 Fab' and F(ab')_2 fragments and murine IgG was investigated using the competition RIA. In addition, the direct binding ELISA was run in competition mode, by coincubation of the test specimen with murine A5B7 IgG1, for confirmation of relative potency.
The relative potencies of murine and chimeric IgGs and fragments were measured by the competition RIA. All the bivalent species—including the chimeric DFM—gave potency equivalent to that of murine A5B7 IgG. […]

B1: A5B7 chimeric DFM (Di Fab' maleimide) (other)
VH: EVKLVESGGGLVQPGGSLRLSCATSGFTFTDYYMNWVRQPPGKALEWLGFIGNKANGYTTEYSASVKGRFTISRDKSQSILYLQMNTLRAEDSATYYCTRDRGLRFYFDYWGQGTTLTVSS
VL: QTVLSQSPAILSASPGEKVTMTCRASSSVTYIHWYQQKPGSSPKSWIYATSNLASGVPARFSGSGSGTSYSLTISRVEAEDAATYYCQHWSSKPPTFGGGTKLEIKR
modifications: hinge thiol cross-linked with 1,6-bismaleimidohexane
  % Relative Potency: 104%
